# Apparent affinities of Ab-91 variants for a coronavirus HR2 peptide

Values reported by Engelhart et al. 2022, doi:10.1038/s41597-022-01779-4 (FLAb copy).

Antigen: PDVDLGDISGINAS, a 14-residue peptide of the SARS-CoV-2 spike HR2 region.

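The parent was found by panning a naive human phage display library on the peptide. In library AAYL51, one, two or three CDR residues were substituted; doubles and triples were drawn at random. AlphaSeq pools MATa yeast showing the antibodies with MATalpha yeast showing the peptide. The frequency of each diploid, read from paired DNA barcodes, reflects how well the two displayed proteins bind. Read counts were normalised to the haploid input and turned into Kd by a linear fit to BCL2-family pairs of known affinity, for each replicate. The assay was run in three technical replicates.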

Ab-91 is the parent antibody, in scFv form: VL, then a (GGGGS)3 linker, then VH. The light chain is unchanged in all variants.
VL: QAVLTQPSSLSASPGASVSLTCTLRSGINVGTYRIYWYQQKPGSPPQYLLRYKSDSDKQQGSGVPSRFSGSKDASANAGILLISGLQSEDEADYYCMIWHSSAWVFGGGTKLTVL
VH: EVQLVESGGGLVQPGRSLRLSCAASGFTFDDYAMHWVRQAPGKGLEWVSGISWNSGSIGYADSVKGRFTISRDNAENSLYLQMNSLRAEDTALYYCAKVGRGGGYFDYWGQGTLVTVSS

The parent's heavy chain CDRs are GFTFDDYAMH, GISWNSGSIGYADSVK, VGRGGGYFDY; each variant's own CDRs replace them letter for letter.
This list gathers variants with a substitution at G59 (VH, numbered from residue 1).
Values are apparent Kd, the geometric mean of the replicates that gave a signal; lower means stronger binding.
"no signal" means that the variant was in the library but no mating with the target was seen in any replicate; the authors take this as a sign of poor binding, and no number exists.
Parent in this assay: reference entry 72 nM, copy in this library 7.5 nM.
As a blank, each scFv also met three strains without target: over library AAYL51, 21% of these pairings were detected, typically at 34 µM and seldom below 1.8 µM.

CDR-H1	CDR-H2	CDR-H3	Kd	detected
GFTFDDYAMH	GISWNYGSIEYADSVL	VGRGGGYFDY	no signal	0 of 3
AFTFDDYAMH	GISWNSGSIWYADSVK	VGRGGGYFDY	no signal	0 of 3
GFTFDDYAMH	GLSWNSGSIFYADEVK	VGRGGGYFDY	no signal	0 of 3
GFTFDDYAMH	GISWNSGSIEYADSVK	VRRGGGYFDY	no signal	0 of 3
GFTFDDYAMH	GISWNSGSIAYADSVK	FGRGGGYFDH	13 µM	3 of 3
GFTFDDRAMH	GISWNSKSIVYADSVK	VGRGGGYFDY	no signal	0 of 3
GFTFDQYAMH	SISWNSGSICYADSVK	VGRGGGYFDY	no signal	0 of 3
GFTFDDYAWW	GISWNSGSIMYADSVK	VGRGGGYFDY	no signal	0 of 3
GFTFDDYAMH	GISWNSGSICYCDSVK	VGRGGGYFDY	30 µM	2 of 3
GFTFDDYACH	GRSWNSGSIHYADSVK	VGRGGGYFDY	18 µM	1 of 3
GFTFDDYAMH	GISWNSGSIVYADSVK	VGRGGGYFDY	no signal	0 of 3
GFTFDDYAMH	GQSWNSGSIMYADAVK	VGRGGGYFDY	no signal	0 of 3
GATFDDYAMH	GISWNSGSIPLADSVK	VGRGGGYFDY	130 µM	2 of 3
GFTFDDYAMH	GISWNSGSFYYADSVK	VGRGGRYFDY	96 µM	3 of 3
GFTFDDYAMH	GISWPSGSISYKDSVK	VGRGGGYFDY	4.4 µM	2 of 3
GFTFDDYAMH	GISWNYGSICYAKSVK	VGRGGGYFDY	59 µM	1 of 3
GFTFDDYAFH	GISWNSGSINYADSVK	VGRGGGKFDY	25 µM	1 of 3
GFTFDDYAMH	GTSWNSGSILYYDSVK	VGRGGGYFDY	no signal	0 of 3
GMEFDDYAMH	GISWNSGSIMYADSVK	VGRGGGYFDY	no signal	0 of 3
GFTFDDYAMH	GISWNSGSIEYGDSVK	CGRGGGYFDY	no signal	0 of 3
GFTFDDYAMH	GISINSGPIAYADSVK	VGRGGGYFDY	no signal	0 of 3
GFTFDWYAMH	GISWNSGSISYAGSVK	VGRGGGYFDY	2.0 µM	1 of 3
GFTFDDYAMW	GISWNSGGIKYADSVK	VGRGGGYFDY	no signal	0 of 3
GFMQDDYAMH	GISWNSGSIEYADSVK	VGRGGGYFDY	230 µM	1 of 3
GFTFDDYAIH	GISWNTGSIEYADSVK	VGRGGGYFDY	890 µM	1 of 3
GPTFDDYHMH	GISWNSGSIYYADSVK	VGRGGGYFDY	no signal	0 of 3
GFTFLDYAMH	GISWNSGSIYYADSVK	KGRGGGYFDY	90 µM	1 of 3
IFTFDDYAMH	GISWNSGNIMYADSVK	VGRGGGYFDY	23 µM	1 of 3
GCTFDDIAMH	GISWNSGSIHYADSVK	VGRGGGYFDY	870 µM	1 of 3
GFTFDDYAMH	GISWNSGSGTYADSVK	VGRGGGYEDY	380 µM	1 of 3
GFTYDDYAMH	GISWNSGSIQYADSVK	VGRGGGHFDY	no signal	0 of 3
GFTFDDFAMH	GISWNSGSIFYADSVK	VGRGGGYFDI	510 µM	2 of 3
GFTMDDYAMH	GPSWNSGSIEYADSVK	VGRGGGYFDY	no signal	0 of 3
GFTFDDYAMH	AISWNSGQIRYADSVK	VGRGGGYFDY	360 µM	2 of 3
GFTFDDYAMH	GCSWNSGSIFYADSVQ	VGRGGGYFDY	no signal	0 of 3
GFTFDDYAMH	GISWNSGSIFYADCVK	VGRGGGYFSY	no signal	0 of 3
GFTFDDYAMH	GISWNSTSIKYADSVK	VGRGGGYFDA	49 µM	3 of 3
GFTFMDYAMH	GISWNSGSISYADSVK	VGRGGGYIDY	770 µM	3 of 3
GFTFDDYAMH	GISLNSGSIMYADSVK	VGRGGGLFDY	81 nM	1 of 3
GFTFDDYAMH	GISWNSGSIWYADSVK	MGRGGGYFDC	54 µM	1 of 3
GFTFDDYAMH	GISWNNGSITYADSVK	VIRGGGYFDY	16 µM	1 of 3
GFTFDDYAMH	GISWNSGSIWYADSVK	VIRGGGVFDY	100 µM	2 of 3
GFTFDDYAMH	GNSWNSGSIIYADSVK	VSRGGGYFDY	2.2 µM	1 of 3
GFTFDDYAMH	GISWNSGSIAYADSVM	VGRGGQYFDY	2.2 µM	1 of 3
GFTFDDAAMH	GISWNSGPISYADSVK	VGRGGGYFDY	92 µM	1 of 3
GFTFKDYAMH	GHSWNSGSIHYADSVK	VGRGGGYFDY	2.0 µM	1 of 3
GFTFDDYAIH	GIRWNSGSISYADSVK	VGRGGGYFDY	no signal	0 of 3
GFTFDDYAMH	GISWNSGSIFYADSVK	VGRGGGYFHT	no signal	0 of 3

A selection of 3 entries from above:

{"CDR-H1": "IFTFDDYAMH", "CDR-H2": "GISWNSGNIMYADSVK", "CDR-H3": "VGRGGGYFDY", "Kd": "23 µM", "detected": "1 of 3"}
{"CDR-H1": "GFTFDDYAMH", "CDR-H2": "GNSWNSGSIIYADSVK", "CDR-H3": "VSRGGGYFDY", "Kd": "2.2 µM", "detected": "1 of 3"}
{"CDR-H1": "GFTFDDYAMH", "CDR-H2": "GTSWNSGSILYYDSVK", "CDR-H3": "VGRGGGYFDY", "Kd": "no signal", "detected": "0 of 3"}